Laboratory results reported in US20240042019A1, “OPTIMIZED TLR7 LIGANDS AND USES THEREOF” (Genentech, Inc., priority 2021, published 2024).

Assay: Particle size of RNA-poly-L-arginine complexes by Dynamic Light Scattering
Settings: 10 minute incubation (FIG. 9)

CACACACACACACACACACA [pCA, reference compound]
Particle size (diameter) of RNA-poly-L-arginine complexes: behaved similarly
